Assay results from patent US20090099157A1, “TETRAHYDRO-PYRAZOLO-PYRIDINE THIOETHER MODULATORS OF CATHEPSIN S” (priority 2007, published 2009).

Amino acid sequences for entries named in this document (tags omitted). Residues count along the entry.
UniProt P25774, 115-331: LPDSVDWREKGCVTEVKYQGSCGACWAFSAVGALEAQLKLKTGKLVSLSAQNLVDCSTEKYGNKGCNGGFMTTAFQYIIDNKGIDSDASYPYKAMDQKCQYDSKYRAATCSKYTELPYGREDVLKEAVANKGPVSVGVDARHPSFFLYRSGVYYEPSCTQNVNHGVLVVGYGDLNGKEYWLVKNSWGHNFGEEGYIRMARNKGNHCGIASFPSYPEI

Target: Recombinant human cathepsin S (CatS) (Homo sapiens, UniProt P25774)
Assay: biochemical

| Compound | IC50 [nM] |
| --- | --- |
| CS(=O)(=O)NC1CCN(CC(O)Cn2nc(-c3ccc(C(F)(F)F)c(SCCN4CCC(O)CC4)c3)c3c2CCN(S(C)(=O)=O)C3)CC1 (stereo not shown) [Example 781, N-[1-(2-Hydroxy-3-{3-[3-{[2-(4-hydroxypiperidin-1-yl)ethyl]sulfanyl}-4-(trifluoromethyl)phenyl]-5-(methylsulfonyl)-4,5,6,7-tetrahydro-1H-pyrazolo[4,3-c]pyridin-1-yl}propyl)piperidin-4-yl]methanesulfonamide] | 290 |
| CN1CCN(CC(O)Cn2nc(-c3ccc(C(F)(F)F)c(SCCN4CCCCC4)c3)c3c2CCN(S(C)(=O)=O)C3)CC1 (stereo not shown) [Example 163, 1-(4-Methylpiperazin-1-yl)-3-[5-(methylsulfonyl)-3-{3-[(2-piperidin-1-ylethyl)sulfanyl]-4-(trifluoromethyl)phenyl}-4,5,6,7-tetrahydro-1H-pyrazolo[4,3-c]pyridin-1-yl]propan-2-ol] | 1150 |
| CS(=O)(=O)N1CCc2c(c(-c3ccc(C(F)(F)F)c(SCCN4CCCC(F)(F)C4)c3)nn2C[C@@H](O)CN2C=NCCC2)C1 [Example 492, (2S)-1-{3-[3-{[2-(3,3-Difluoropiperidin-1-yl)ethyl]sulfanyl}-4-(trifluoromethyl)phenyl]-5-(methylsulfonyl)-4,5,6,7-tetrahydro-1H-pyrazolo[4,3-c]pyridin-1-yl}-3-(5,6-dihydropyrimidin-1(4H)-yl)propan-2-ol] | 430 |
| CS(=O)(=O)N1CCc2c(c(-c3ccc(C(F)(F)F)c(SCCN4CCOCC4)c3)nn2CC(O)CN2CCC(O)(c3ccccn3)CC2)C1 (stereo not shown) [Example 725, 1-{2-Hydroxy-3-[5-(methylsulfonyl)-3-{3-[(2-morpholin-4-ylethyl)sulfanyl]-4-(trifluoromethyl)phenyl}-4,5,6,7-tetrahydro-1H-pyrazolo[4,3-c]pyridin-1-yl]propyl}-4-pyridin-2-ylpiperidin-4-ol] | 170 |
| O=C(CSc1cc(-c2nn(CC(O)CN3CCC(C(=O)N4CCCC4)CC3)c3c2CNCC3)ccc1C(F)(F)F)N1CCCC1 (stereo not shown) [Example 410, 1-(3-{3-[(2-Oxo-2-pyrrolidin-1-ylethyl)sulfanyl]-4-(trifluoromethyl)phenyl}-4,5,6,7-tetrahydro-1H-pyrazolo[4,3-c]pyridin-1-yl)-3-[4-(pyrrolidin-1-ylcarbonyl)piperidin-1-yl]propan-2-ol] | 700 |
| CC1CCN(C[C@H](O)Cn2nc(-c3ccc(C(F)(F)F)c(SCCN4CCCC(F)(F)C4)c3)c3c2CCN(S(C)(=O)=O)C3)CC1 [Example 142, (2S)-1-(3-{3-[2-(3,3-Difluoro-piperidin-1-yl)-ethylsulfanyl]-4-trifluoromethyl-phenyl}-5-methanesulfonyl-4,5,6,7-tetrahydro-pyrazolo[4,3-c]pyridin-1-yl)-3-(4-methylpiperidin-1-yl)-propan-2-ol] | 40 |
| CS(=O)(=O)N1CCc2c(c(-c3ccc(C(F)(F)F)c(SCCN4CCC(F)CC4)c3)nn2C[C@H](O)CN2CCN(c3ccccc3)CC2)C1 [Example 737, (2R)-1-{3-[3-{[2-(4-Fluoropiperidin-1-yl)ethyl]sulfanyl}-4-(trifluoromethyl)phenyl]-5-(methylsulfonyl)-4,5,6,7-tetrahydro-1H-pyrazolo[4,3-c]pyridin-1-yl}-3-(4-phenylpiperazin-1-yl)propan-2-ol] | 40 |
| CS(=O)(=O)N1CCc2c(c(-c3ccc(C(F)(F)F)c(SCCN4CC[C@H](F)C4)c3)nn2C[C@@H](O)CN2CCC(C3CCCCC3)CC2)C1 [Example 284] | 70 |
| CS(=O)(=O)N1CCc2c(c(-c3ccc(C(F)(F)F)c(SCCN4CCC(F)CC4)c3)nn2C[C@@H](O)CN2CCC(O)CC2)C1 [Example 480, 1-[(2S)-3-{3-[3-{[2-(4-Fluoropiperidin-1-yl)ethyl]sulfanyl}-4-(trifluoromethyl)phenyl]-5-(methylsulfonyl)-4,5,6,7-tetrahydro-1H-pyrazolo[4,3-c]pyridin-1-yl}-2-hydroxypropyl]piperidin-4-ol] | 130 |
| CS(=O)(=O)N1CCc2c(c(-c3ccc(C(F)(F)F)c(SCCN4CCCC(CO)C4)c3)nn2CC(O)CN2CCN(c3ccccc3C#N)CC2)C1 (stereo not shown) [Example 855, 2-[4-(2-Hydroxy-3-{3-[3-({2-[3-(hydroxymethyl)piperidin-1-yl]ethyl}sulfanyl)-4-(trifluoromethyl)phenyl]-5-(methylsulfonyl)-4,5,6,7-tetrahydro-1H-pyrazolo[4,3-c]pyridin-1-yl}propyl)piperazin-1-yl]benzonitrile] | 30 |
| CC1CCN(CCSc2cc(-c3nn(C[C@@H](O)CN4CCOCC4)c4c3CN(S(C)(=O)=O)CC4)ccc2C(F)(F)F)CC1 [Example 391, (2S)-1-{3-[3-{[2-(4-Methylpiperidin-1-yl)ethyl]sulfanyl}-4-(trifluoromethyl)phenyl]-5-(methylsulfonyl)-4,5,6,7-tetrahydro-1H-pyrazolo[4,3-c]pyridin-1-yl}-3-morpholin-4-ylpropan-2-ol] | 290 |
| COc1ccccc1C1CCN(C[C@@H](O)Cn2nc(-c3ccc(C(F)(F)F)c(SCCN4CCC(F)CC4)c3)c3c2CCN(S(C)(=O)=O)C3)CC1 [Example 841, (2R)-1-{3-[3-{[2-(4-Fluoropiperidin-1-yl)ethyl]sulfanyl}-4-(trifluoromethyl)phenyl]-5-(methylsulfonyl)-4,5,6,7-tetrahydro-1H-pyrazolo[4,3-c]pyridin-1-yl}-3-{4-[2-(methyloxy)phenyl]piperidin-1-yl}propan-2-ol] | 20 |
| CS(=O)(=O)N1CCc2c(c(-c3ccc(C(F)(F)F)c(SCC(=O)N4CC=CCC4)c3)nn2CCCN2CCC(N3CCCC3=O)CC2)C1 [Example 97, 1-{1-[3-(3-{3-[2-(3,6-Dihydro-2H-pyridin-1-yl)-2-oxo-ethylsulfanyl]-4-trifluoromethyl-phenyl}-5-methanesulfonyl-4,5,6,7-tetrahydro-pyrazolo[4,3-c]pyridin-1-yl)-propyl]-piperidin-4-yl}-pyrrolidin-2-one] | 130 |
| CS(=O)(=O)N1CCc2c(c(-c3ccc(C(F)(F)F)c(SCC(=O)N4CCCC4)c3)nn2CC(O)CN2CCC(N3CCOCC3)CC2)C1 (stereo not shown) [Example 263, 1-[5-(Methylsulfonyl)-3-{3-[(2-oxo-2-pyrrolidin-1-ylethyl)sulfanyl]-4-(trifluoromethyl)phenyl}-4,5,6,7-tetrahydro-1H-pyrazolo[4,3-c]pyridin-1-yl]-3-(4-morpholin-4-ylpiperidin-1-yl)propan-2-ol] | 140 |
| CS(=O)(=O)N1CCc2c(c(-c3ccc(C(F)(F)F)c(SCCN4CCCC(F)C4)c3)nn2C[C@@H](O)CN2CCOCC2)C1 (stereo partly drawn) [Example 412, (2S)-1-{3-[3-{[2-(3-Fluoropiperidin-1-yl)ethyl]sulfanyl}-4-(trifluoromethyl)phenyl]-5-(methylsulfonyl)-4,5,6,7-tetrahydro-1H-pyrazolo[4,3-c]pyridin-1-yl}-3-morpholin-4-ylpropan-2-ol] | 490 |
| CS(=O)(=O)N1CCc2c(c(-c3ccc(C(F)(F)F)c(SCCN4CCCC(F)C4)c3)nn2C[C@@H](O)CN2CCC(F)CC2)C1 (stereo partly drawn) [Example 504, (2S)-1-(4-Fluoropiperidin-1-yl)-3-{3-[3-{[2-(3-fluoropiperidin-1-yl)ethyl]sulfanyl}-4-(trifluoromethyl)phenyl]-5-(methylsulfonyl)-4,5,6,7-tetrahydro-1H-pyrazolo[4,3-c]pyridin-1-yl}propan-2-ol] | 220 |
